Laboratory results reported in patent US20030125311A1, “Compounds capable of binding with the cytoskeleton” (priority 2002, published 2003).

Test system: rat brain cytosol binding sites of pregnenolone
Test: Competition trials for PREG [3H] binding in brain cytosol

DHEA sulfate
competition for the binding of PREG [3H] (in words): practically negligible effect
R.C.R. 50 (relative competition index) (PREG = 100, 50% reduction of specific binding of 100 nM PREG [3H], mean±standard error, n=3): 0.045
